Measurements reported in patent publication US20080131419A1 (YISSUM RESEARCH DEVELOPMENT COMPANY OF THE HEBREW …, published 2008).

Target: rabbit muscle actin polymerized to filamentous (F-) actin (rabbit, UniProt P68135 3-377)
Test: co-sedimentation of 1-33 uM RNase B1 with 30 uM F-actin, RNase activity of the supernatant, Scatchard analysis
Protocol: The interaction between RNase B1 and actin was quantified as modified from Simm (Simm, F. C. et al., 1987. Eur. J. Biochem. 166:49-54). Rabbit muscle globu(G-) actin (Sigma Co.) was polymerized to filamentous (F—) actin in Buffer F (10 mM Tris pH 8, 0.1 mM ATP, 0.2 mM CaCl₂, 0.1 M KCL and 2 mM MgCl₂) for 30 minutes at room temperature. Samples of 50 μl containing each 30 μM F-actin were incubated overnight at 4° C. with 1-33 μM RNase B1. As a control, each concentration of RNase was incubated with buffer F alone. The samples were centrifuged at 15,000 g for 40 minutes and RNase activity of the supernatant was determined (Roiz, L., Goren, R. and Shoseyov, 0.1995, Physiol. Plant. 94:585-590.).
The interaction between RNase B1 and actin was quantified using Scatchard analysis.

- RNase:actin molar ratio: 0.45 mol RNase per mol actin
B1: Aspergillus niger B1 extracellular RNase (RNase B1) (enzyme)
chain: TIDTCSSDSPLSCQTDNEASCCFNSPGGSLLQTQFWDYDPSDGPSGSWTIHGLWPDNCDGTYQEYCDESREYSNITSILEAQNRTELLSYMKEYWPDYEGADEDESFWEHEWNKHGTCINTIEPSCYTDYYAQEEVGDFFQQVVDLFKTLDSYTALSDAGITPSEDATYKLSDIEDALAAIHDGYPPYVGCEDGALSQLYYYFNVKGSAIGGTYVASERLEDSNCKDSGIKYPPKYSSSKKIYGSSL
modifications: glycoprotein (32- and 40-kDa glycoforms sharing a 29-kDa protein core)
notes: Native protein purified from A. niger B1 culture filtrate (EMD-TMAE and MONO-Q columns); also called A. niger T2 RNase; B1 RNase
